{"sequences": {"note": "Amino acid sequences for entries named in this document (tags omitted). A change or cut given only in a name is not applied to a line headed by its entry.", "UniProt P29597": "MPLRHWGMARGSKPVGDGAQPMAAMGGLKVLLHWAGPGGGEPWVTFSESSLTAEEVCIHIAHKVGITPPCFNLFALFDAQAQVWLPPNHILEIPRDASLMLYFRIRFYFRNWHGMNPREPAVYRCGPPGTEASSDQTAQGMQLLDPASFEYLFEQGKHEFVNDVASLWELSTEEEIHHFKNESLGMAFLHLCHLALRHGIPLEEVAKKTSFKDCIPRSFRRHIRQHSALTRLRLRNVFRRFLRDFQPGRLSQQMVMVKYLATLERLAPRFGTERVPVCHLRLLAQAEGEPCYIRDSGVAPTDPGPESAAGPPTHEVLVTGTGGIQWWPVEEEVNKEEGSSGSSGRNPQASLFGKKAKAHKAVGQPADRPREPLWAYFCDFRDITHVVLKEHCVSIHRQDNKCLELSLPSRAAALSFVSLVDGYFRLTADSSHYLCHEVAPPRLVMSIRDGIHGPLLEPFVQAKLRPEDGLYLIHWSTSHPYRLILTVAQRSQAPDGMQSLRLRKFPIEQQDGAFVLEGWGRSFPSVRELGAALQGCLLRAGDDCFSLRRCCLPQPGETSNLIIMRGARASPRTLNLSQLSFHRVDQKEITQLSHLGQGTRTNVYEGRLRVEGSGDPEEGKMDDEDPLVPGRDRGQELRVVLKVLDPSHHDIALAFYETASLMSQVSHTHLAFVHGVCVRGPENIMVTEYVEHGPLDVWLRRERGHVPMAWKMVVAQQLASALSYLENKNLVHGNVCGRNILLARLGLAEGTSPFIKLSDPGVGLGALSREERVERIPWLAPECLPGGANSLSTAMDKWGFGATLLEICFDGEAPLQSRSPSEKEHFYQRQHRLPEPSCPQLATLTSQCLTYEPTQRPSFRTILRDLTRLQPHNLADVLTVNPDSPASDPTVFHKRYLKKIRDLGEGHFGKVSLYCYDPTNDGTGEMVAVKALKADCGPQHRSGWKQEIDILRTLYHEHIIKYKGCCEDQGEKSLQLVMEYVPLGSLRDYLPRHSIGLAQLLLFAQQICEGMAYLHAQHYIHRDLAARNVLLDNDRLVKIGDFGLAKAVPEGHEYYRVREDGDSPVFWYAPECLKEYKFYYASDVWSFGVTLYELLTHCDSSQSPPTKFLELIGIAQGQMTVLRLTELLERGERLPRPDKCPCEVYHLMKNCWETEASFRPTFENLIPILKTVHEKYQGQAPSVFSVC", "UniProt P52333": "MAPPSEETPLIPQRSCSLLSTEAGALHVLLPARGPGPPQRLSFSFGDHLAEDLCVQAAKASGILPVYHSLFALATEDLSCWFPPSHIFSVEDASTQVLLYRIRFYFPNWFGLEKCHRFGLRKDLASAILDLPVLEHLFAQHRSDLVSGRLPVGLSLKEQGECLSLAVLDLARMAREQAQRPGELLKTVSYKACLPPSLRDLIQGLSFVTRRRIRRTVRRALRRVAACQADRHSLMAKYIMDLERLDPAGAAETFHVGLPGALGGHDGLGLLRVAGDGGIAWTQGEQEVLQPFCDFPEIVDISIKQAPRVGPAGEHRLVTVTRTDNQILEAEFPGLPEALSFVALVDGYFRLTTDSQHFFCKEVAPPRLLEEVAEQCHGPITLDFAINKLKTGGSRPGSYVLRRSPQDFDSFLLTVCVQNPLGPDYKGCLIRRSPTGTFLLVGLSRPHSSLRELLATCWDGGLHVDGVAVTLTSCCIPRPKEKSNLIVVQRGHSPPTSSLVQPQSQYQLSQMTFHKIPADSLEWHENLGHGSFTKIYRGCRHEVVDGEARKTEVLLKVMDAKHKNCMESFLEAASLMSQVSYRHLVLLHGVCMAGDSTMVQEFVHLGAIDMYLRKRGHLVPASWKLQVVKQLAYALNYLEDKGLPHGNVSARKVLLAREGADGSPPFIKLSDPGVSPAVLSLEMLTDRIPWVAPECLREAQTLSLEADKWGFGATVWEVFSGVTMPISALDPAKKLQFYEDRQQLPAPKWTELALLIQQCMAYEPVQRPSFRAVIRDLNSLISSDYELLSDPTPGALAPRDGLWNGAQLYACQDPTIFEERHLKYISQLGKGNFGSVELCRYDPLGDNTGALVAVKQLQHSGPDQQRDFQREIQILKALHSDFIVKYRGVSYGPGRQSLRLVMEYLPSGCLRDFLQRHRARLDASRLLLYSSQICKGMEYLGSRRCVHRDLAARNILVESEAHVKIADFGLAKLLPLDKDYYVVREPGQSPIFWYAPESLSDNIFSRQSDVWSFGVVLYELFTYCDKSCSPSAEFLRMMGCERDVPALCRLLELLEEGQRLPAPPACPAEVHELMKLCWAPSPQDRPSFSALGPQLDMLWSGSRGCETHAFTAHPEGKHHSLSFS"}, "source": "patent US9216999B2", "about": "“Substituted pyrrolo[2,3-h][1,6]naphthyridines and compositions thereof as JAK inhibitors” (priority 2011, dated 2015)", "key": {"JAK1": {"molecular_target": "JAK1 (Homo sapiens (Human), UniProt P23458)", "test": "JAK1 enzyme assay (Assay Example^b 1)", "conditions": "IC50 (μM) JAK1, Table^b 78; ATP 100 μM"}, "Tyk2": {"molecular_target": "Tyk2 (Homo sapiens (Human), UniProt P29597)", "test": "Tyk2 enzyme assay (Assay Example^b 1)"}, "JAK2": {"molecular_target": "JAK2 (Homo sapiens (Human), UniProt O60674)", "test": "JAK2 enzyme assay (Assay Example^b 1)"}, "JAK3": {"molecular_target": "JAK3 (Homo sapiens (Human), UniProt P52333)", "test": "JAK3 enzyme assay (Assay Example^b 1)", "conditions": "IC50 (μM) JAK3, Table^b 78; ATP 100 μM"}, "[1]": {"conditions": "IC50 (μM) TYK2, Table^b 79, ATP 100 μM"}, "[2]": {"conditions": "IC50 (μM) JAK2, Table^b 79, ATP 100 μM"}}, "data": [{"compound": "CC(C)CS(=O)(=O)N1CC[C@@H](C)[C@@H](n2ccc(=O)c3cnc4[nH]ccc4c32)C1", "note": "(racemic) [compound 10]", "values": [{"measurement": "IC50", "setting": "JAK1", "result": 0.0081, "unit": "µM"}, {"measurement": "IC50", "setting": "Tyk2; [1]", "result": 1.6, "unit": "µM"}, {"measurement": "IC50", "setting": "JAK2; [2]", "result": 0.039, "unit": "µM"}]}, {"compound": "C[C@@H]1CCN(C(=O)Cc2ccc(F)cc2)C[C@@H]1n1ccc(=O)c2cnc3[nH]ccc3c21", "note": "(racemic) [compound 32]", "values": [{"measurement": "IC50", "setting": "Tyk2; IC50 (μM) TYK2, Table^b 80, ATP 100 μM", "result": "> 1", "unit": "µM"}]}, {"compound": "CN(CC(F)(F)F)C[C@H]1CC[C@H](n2c(=O)[nH]c(=O)c3cnc4[nH]ccc4c32)CC1", "note": "[Synthetic Example^b 136, 1-(trans-4-{[Methyl(2,2,2-trifluoroethyl)amino]methyl}cyclohexyl)-1H-pyrrolo[3′,2′:5,6]pyrido[4,3-d]pyrimidine-2,4(3H,7H)-dione]", "values": [{"measurement": "IC50", "setting": "Tyk2; IC50 (μM) TYK2, ATP 100 μM", "result": 0.32, "unit": "µM"}, {"measurement": "IC50", "setting": "JAK2; IC50 (μM) JAK2, ATP 100 μM", "result": 0.051, "unit": "µM"}]}, {"compound": "O=c1ccn(C2CCCCC2)c2c1cnc1[nH]ccc12", "note": "[compound 3]", "values": [{"measurement": "IC50", "setting": "Tyk2; [1]", "result": 0.13, "unit": "µM"}, {"measurement": "IC50", "setting": "JAK2; [2]", "result": 0.15, "unit": "µM"}]}, {"compound": "O=c1ncc2cnc3[nH]ccc3c2n1C1CCCCC1", "note": "[compound 18]", "values": [{"measurement": "IC50", "setting": "JAK1", "result": 0.045, "unit": "µM"}, {"measurement": "IC50", "setting": "JAK3", "result": 1.2, "unit": "µM"}]}, {"compound": "O=c1[nH]c(=O)n([C@H]2CC[C@H](CN3CC[C@@H](O)C3)CC2)c2c1cnc1[nH]ccc12", "note": "[compound 112]", "values": [{"measurement": "IC50", "setting": "Tyk2; IC50 (μM) TYK2, ATP 100 μM", "result": 0.032, "unit": "µM"}]}, {"compound": "O=c1[nH]c(=O)n(C2CCC(CNCC3CC3)CC2)c2c1cnc1[nH]ccc12", "note": "(centres unmarked) [compound 117]", "values": [{"measurement": "IC50", "setting": "Tyk2; IC50 (μM) TYK2, ATP 100 μM", "result": 0.8, "unit": "µM"}, {"measurement": "IC50", "setting": "JAK2; IC50 (μM) JAK2, ATP 100 μM", "result": 0.85, "unit": "µM"}]}, {"compound": "O=C(CC(F)(F)F)N(CC(F)(F)F)C[C@H]1CC[C@H](n2c(=O)[nH]c(=O)c3cnc4[nH]ccc4c32)CC1", "note": "[compound 155]", "values": [{"measurement": "IC50", "setting": "Tyk2; IC50 (μM) TYK2, ATP 100 μM", "result": 0.14, "unit": "µM"}]}]}
